Data published in ChEMBL document CHEMBL4219073, “Development of selective inhibitors for the treatment of rheumatoid arthritis: (R)-3-(3-(Methyl(7H-pyrrolo[2,3-d]pyrimidin-4-yl)amino)pyrrolidin-1-yl)-3-oxopropanenitrile as a JAK1-selective inhibitor” (Bioorg Med Chem, 2018).

Biological target: T1, Tyrosine-protein kinase JAK3 (Homo sapiens, UniProt P52333)
T1 sequence (P52333 whole entry): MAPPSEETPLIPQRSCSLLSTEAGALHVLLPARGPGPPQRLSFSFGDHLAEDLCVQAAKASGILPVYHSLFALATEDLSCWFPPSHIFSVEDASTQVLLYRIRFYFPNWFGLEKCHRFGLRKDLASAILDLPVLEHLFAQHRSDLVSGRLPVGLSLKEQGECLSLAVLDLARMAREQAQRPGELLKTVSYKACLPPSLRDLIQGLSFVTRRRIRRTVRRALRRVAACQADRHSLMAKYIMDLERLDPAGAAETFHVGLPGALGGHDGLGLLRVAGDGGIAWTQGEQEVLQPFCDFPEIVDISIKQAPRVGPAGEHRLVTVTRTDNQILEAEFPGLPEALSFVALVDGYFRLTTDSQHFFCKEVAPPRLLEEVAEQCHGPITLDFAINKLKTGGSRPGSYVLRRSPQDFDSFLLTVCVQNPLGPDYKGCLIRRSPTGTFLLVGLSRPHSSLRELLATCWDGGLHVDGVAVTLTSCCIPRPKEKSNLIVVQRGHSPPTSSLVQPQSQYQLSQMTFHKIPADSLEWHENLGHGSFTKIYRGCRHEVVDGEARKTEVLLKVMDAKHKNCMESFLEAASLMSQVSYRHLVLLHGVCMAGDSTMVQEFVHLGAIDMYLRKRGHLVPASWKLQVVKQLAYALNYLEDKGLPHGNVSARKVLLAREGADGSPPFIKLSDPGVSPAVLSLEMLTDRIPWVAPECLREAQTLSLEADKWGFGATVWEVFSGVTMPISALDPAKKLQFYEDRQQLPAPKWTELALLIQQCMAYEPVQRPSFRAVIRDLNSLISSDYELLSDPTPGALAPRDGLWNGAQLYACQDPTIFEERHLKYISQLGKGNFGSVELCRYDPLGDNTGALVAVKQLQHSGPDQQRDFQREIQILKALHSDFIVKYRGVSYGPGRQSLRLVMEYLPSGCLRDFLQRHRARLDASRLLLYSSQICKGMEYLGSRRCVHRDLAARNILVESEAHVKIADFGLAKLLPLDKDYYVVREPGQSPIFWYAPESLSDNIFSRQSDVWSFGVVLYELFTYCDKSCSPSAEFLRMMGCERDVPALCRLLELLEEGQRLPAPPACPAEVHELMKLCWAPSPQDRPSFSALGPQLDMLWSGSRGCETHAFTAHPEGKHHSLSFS

**Q.** Which IC50 does the source give for CN(c1ncnc2[nH]ccc12)[C@@H]1CCN(C(=O)CC#N)C1 here?
**A.** 2800 nM
